Earlier results on four molecules are cited in US20230330042A1 (published 2023).

The chains behind the UniProt entries cited, without tags or fusion partners. Where a name states a change or a piece, a line headed by the entry shows the natural chain unless it says otherwise.
UniProt P35372, whole entry, species assumed: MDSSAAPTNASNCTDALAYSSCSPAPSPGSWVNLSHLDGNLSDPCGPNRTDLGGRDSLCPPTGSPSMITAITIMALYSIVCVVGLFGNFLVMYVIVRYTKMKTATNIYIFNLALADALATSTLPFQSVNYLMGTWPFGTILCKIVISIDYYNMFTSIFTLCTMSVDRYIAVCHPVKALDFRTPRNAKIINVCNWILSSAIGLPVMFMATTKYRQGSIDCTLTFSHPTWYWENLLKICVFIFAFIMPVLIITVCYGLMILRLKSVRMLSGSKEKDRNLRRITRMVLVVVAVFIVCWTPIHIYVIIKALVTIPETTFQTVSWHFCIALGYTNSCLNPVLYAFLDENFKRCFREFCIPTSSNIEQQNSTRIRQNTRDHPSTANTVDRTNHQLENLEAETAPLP
UniProt P41145: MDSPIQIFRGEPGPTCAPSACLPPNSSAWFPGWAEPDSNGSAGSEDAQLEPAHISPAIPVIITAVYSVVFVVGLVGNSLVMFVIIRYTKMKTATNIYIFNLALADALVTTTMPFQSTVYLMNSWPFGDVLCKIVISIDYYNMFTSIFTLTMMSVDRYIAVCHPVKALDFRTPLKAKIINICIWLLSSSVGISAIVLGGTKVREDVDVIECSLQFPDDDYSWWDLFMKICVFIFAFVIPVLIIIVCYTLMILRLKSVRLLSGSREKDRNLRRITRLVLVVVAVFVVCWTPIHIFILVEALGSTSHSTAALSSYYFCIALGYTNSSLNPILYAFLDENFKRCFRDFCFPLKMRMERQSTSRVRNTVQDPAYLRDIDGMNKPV

One data set deals with μ-opioid receptor (Homo sapiens, UniProt P35372). The settings on record: read-out: Ki μ.
Another data set has as its target κ-opioid receptor (Homo sapiens, UniProt P41145). Particulars: read-out: Ki κ.

As to `CN(C)CC1CCCCC1(O)c1cccc(O)c1` (racemic) [(±)-M1, O-desmethyltramadol], on μ-opioid receptor, the Ki was 12.1 nM.
Take `CN(C)CC1CCCCC1(O)c1cccc(O)c1` (single isomer, unassigned; (+)) [(+)-M1]: at μ-opioid receptor, the Ki was 6.02 nM.
As for `CN(C)CC1CCCCC1(O)c1cccc(O)c1` (single isomer, unassigned; (-)) [(−)-M1], the Ki on μ-opioid receptor is 428 nM.
Take `COc1ccc2c3c1O[C@H]1[C@@H](O)C=C[C@H]4[C@@H](C2)N(C)CC[C@@]341` [Codeine]: the Ki on κ-opioid receptor was 5970 nM.
